Experimental data reported in PubChem BioAssay AID488890 (Southern Research Specialized Biocontainment Screening …, 2010).
The whole screen tested about 320,000 compounds, of which about 1,300 (0.41%) were called active. The source calls these results inconclusive, neither active nor inactive. How the calls were made is not given here.

Test: growth inhibition of non-replicating M. tuberculosis (AID 488890);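 further: plate controls were DMSO cells for no effect and high antibiotic wells for full effect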
Details: Mycobacterium tuberculosis non-replicating, at 25 µM, active compounds read high

Row | SMILES | inhibition
1 | O=[N+]([O-])c1cc([N+](=O)[O-])c(-c2ccn[nH]2)s1 | inconclusive: 102%
2 | CCN(CC)C(=S)SC(NC=O)C(Cl)(Cl)Cl (centres undefined) | inconclusive: 101%
3 | Cc1cc(SC(NC(=O)c2ccccc2)C(Cl)(Cl)Cl)nc(C(C)C)n1 (centres undefined) | inconclusive: 101%
4 | CCC1=CC2Cc3nc4ccc(Cl)cc4c(N)c3C(C1)C2 (centres undefined) | inconclusive: 84.4%
5 | O=P(Nc1nccs1)(c1ccccc1)c1nc2ccccc2s1 (centres undefined) | inconclusive: 101%
6 | O=[N+]([O-])c1ccc(O)c(/C=N/Nc2ccc([N+](=O)[O-])cc2[N+](=O)[O-])c1 | inconclusive: 99.5%
7 | CCc1nc2c(n1)c1c(non1O)c1c2no[n+]1[O-] | inconclusive: 100%
8 | C[N+]1=C2C=CC=CC=C2SC12C([N+](=O)[O-])=CC([N+](=O)[O-])=C[C-]2[N+](=O)[O-] (centres undefined) | inconclusive: 101%
9 | O=P(Nc1nc2ccc(Cl)cc2s1)(c1ccccc1)c1ccccc1 | inconclusive: 84.5%
